# Results taken from US8263587B2, “Benzoxazepine compounds, their preparation and use” (Piramal Healthcare Limited, priority 2006, dated 2012).
# Molecular target: T1, hPPARα (Homo sapiens, UniProt Q07869)
# T1 construct: expressed in transfected cells; host or cells: CV-1 cells
# T1 sequence (Q07869 1-468): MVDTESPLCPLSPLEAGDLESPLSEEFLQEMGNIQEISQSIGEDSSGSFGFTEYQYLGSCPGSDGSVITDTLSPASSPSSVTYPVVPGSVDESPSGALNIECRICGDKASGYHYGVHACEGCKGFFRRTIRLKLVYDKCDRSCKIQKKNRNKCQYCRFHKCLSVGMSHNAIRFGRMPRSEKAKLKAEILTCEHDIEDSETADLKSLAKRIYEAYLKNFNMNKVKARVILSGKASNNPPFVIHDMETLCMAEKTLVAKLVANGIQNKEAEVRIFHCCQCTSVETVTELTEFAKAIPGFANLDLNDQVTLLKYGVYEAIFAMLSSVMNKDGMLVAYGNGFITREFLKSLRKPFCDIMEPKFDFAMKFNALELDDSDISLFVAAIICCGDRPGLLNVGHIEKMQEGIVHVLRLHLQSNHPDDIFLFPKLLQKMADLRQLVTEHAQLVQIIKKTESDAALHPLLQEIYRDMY
# Assay: hPPARα transactivation in cell-based assay (CV-1 cells, luciferase)
# Conditions: CV-1 cells transfected with hPPARα
# Procedure: Cell based transcription assay was employed to identify hPPAR γ/α agonists. CV-1 cells were maintained in MEM (minimum essential medium) containing 10% FBS (fetal bovine serum). Cells were seeded at a density of 80,000 cells/well in a 24-well plate one day prior to transfection. CV-1 cells were transiently transfected with hPPAR γ/α using Lipofectamine 2000. […] Receptor activation by ligands leads to activation of luciferase expression, which was measured after 15-16 h incubation. The cells were washed with PBS, lysed, and luciferase activity measured in a microplate luminometer. […] Both compounds were synthesized in-house. Maximum activation with the reference agonists was defined as 100%. Receptor activation by test compounds is presented as percentage of maximum activation caused by the respective reference agonists in Table 4(a), Table 4(b) and Table 4(c).
structure (smiles),measurement,value
"Cc1cccc(Nc2cc(Cl)nc(SCC(=O)O)n2)c1C [Wy-14,643, Wy-14643, reference compound]",PPARα (Fold activation at 20 μM),3.2 fold
